# Measurements: patent US9688856B2, “Biologically active silicic acid” (dated 2017)
# Amino acid sequences for entries named in this document (tags omitted). A change or cut given only in a name is not applied to a line headed by its entry.
# UniProt P04191: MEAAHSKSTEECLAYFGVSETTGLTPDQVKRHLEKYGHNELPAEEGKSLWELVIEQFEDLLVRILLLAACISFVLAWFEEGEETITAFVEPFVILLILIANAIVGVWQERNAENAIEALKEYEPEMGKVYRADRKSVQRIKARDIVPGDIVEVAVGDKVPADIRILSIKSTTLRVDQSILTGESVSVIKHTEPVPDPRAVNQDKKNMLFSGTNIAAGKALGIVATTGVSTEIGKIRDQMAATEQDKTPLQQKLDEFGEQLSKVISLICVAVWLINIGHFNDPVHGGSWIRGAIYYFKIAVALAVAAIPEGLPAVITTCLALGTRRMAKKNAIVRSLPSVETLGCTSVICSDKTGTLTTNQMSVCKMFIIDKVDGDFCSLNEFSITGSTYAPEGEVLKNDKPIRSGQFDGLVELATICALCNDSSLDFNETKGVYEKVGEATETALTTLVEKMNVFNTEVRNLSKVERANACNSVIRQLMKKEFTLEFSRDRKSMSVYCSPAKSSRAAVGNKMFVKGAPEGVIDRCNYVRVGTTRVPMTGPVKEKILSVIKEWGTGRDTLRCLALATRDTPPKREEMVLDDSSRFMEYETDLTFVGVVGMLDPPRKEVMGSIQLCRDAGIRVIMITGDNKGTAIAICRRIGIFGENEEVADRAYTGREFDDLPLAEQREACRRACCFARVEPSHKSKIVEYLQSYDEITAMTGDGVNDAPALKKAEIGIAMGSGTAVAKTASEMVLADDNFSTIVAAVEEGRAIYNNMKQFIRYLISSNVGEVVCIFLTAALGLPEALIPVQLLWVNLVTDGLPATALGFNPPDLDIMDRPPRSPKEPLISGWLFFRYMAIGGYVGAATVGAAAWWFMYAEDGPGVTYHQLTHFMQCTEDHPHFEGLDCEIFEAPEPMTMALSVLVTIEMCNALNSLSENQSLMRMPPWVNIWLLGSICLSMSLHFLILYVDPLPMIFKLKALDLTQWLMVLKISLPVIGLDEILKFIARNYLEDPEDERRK
# Experiments:
# [1] = molecular target: Ca-ATPase pump of the endoplasmic reticulum (SERCA) (Oryctolagus cuniculus, UniProt P04191); settings: prior art; cited from earlier work
# ERK1 and ERK2 = test: ERK phosphorylation in THP1 cells
# [2] = molecular target: rabbit medulla Na,K-ATPase (Oryctolagus cuniculus, UniProt Q9N0Z6); test: Inhibition of rabbit medulla Na,K-ATPase, coupled pyruvate kinase/lactate dehydrogenase assay
# [3] = cited from earlier work
# HD dermal lesions = test: Wound healing in sulphur mustard (HD) model on weanling pigs
# diabetes mice db/db = test: Blood glucose in diabetes mice db/db; settings: within 2 h of administration; SNSA 24 mg/kg body weight
# [4] = tested on: Na,K-ATPase, H/K-ATPase, Ca-ATPase and other P-type ATPase enzymes; settings: prior art; cited from earlier work
# [5] = same enzyme, cardiac glycosides
compound,measurement,setting,value
CC(=O)C1=C(O)[C@@H]2[C@H]3c4c[nH]c5cccc(c45)C[C@H]3C(C)(C)N2C1=O,SERCA inhibition potency range of previous art inhibitors,[1],micromolar (μM) range
CC(C)(C)c1cc(O)c(C(C)(C)C)cc1O,SERCA inhibition potency range of previous art inhibitors,[1],micromolar (μM) range
sodium vanadate,effect of treatment with H2O2 (peroxydation) on activation of ERK1 and ERK2,ERK1 and ERK2,increases strongly
C[C@@H]1O[C@@H](O[C@H]2CC[C@]3(C=O)[C@H]4CC[C@]5(C)[C@@H](c6ccc(=O)oc6)CC[C@]5(O)[C@@H]4CC[C@]3(O)C2)[C@H](O)[C@H](O)[C@H]1O[C@@H]1O[C@H](CO)[C@@H](O)[C@H](O)[C@H]1O,IC50,[2]; [5],1000 nM
C[C@H]1O[C@@H](O[C@H]2[C@@H](O)C[C@H](O[C@H]3[C@@H](O)C[C@H](O[C@H]4CC[C@@]5(C)[C@H](CC[C@@H]6[C@@H]5C[C@@H](O)[C@]5(C)[C@@H](C7=CC(=O)OC7)CC[C@]65O)C4)O[C@@H]3C)O[C@@H]2C)C[C@H](O)[C@@H]1O,well tolerated daily administration,[3]; daily,4-5 mg/patient
same,LD50,[3]; in vivo,0.1 mg/kg body weight
same,dose that may cause fatal toxicity,[3]; in vivo,8-10 mg/patient/day
COc1cc(/C=C/C(=O)CC(=O)/C=C/c2ccc(O)c(OC)c2)ccc1O,SERCA inhibition potency range of previous art inhibitors,[1],micromolar (μM) range
C[C@@H]1O[C@@H](O[C@H]2C[C@@H](O)[C@]3(CO)[C@H]4[C@H](O)C[C@]5(C)[C@@H](C6=CC(=O)OC6)CC[C@]5(O)[C@@H]4CC[C@]3(O)C2)[C@H](O)[C@H](O)[C@H]1O,IC50,"[2]; read-out: mean IC50, standard freshly prepared for each measurement set",1230 nM
same,IC50,"[2]; read-out: mean IC50 in molar units, corresponding to 0.72 μg/ml",1000 nM
same,IC50,[2]; [5],1000 nM
C/C=C(/C)C(=O)O[C@H]1C(C)=C2[C@H]([C@@H]1OC(=O)CCCCCCC)[C@@](C)(OC(C)=O)C[C@H](OC(=O)CCC)[C@@]1(O)[C@H]2OC(=O)[C@@]1(C)O,SERCA inhibition potency range of previous art inhibitors,[1],sub-nano-molar range
NCc1ccc(S(N)(=O)=O)cc1,Disrupted TEWL,HD dermal lesions; Mafenide (50 mg),day 4
same,"Re-epitelization, mean value of three blisters",HD dermal lesions; Mafenide (50 mg),38.0 days
same,"Recovered TE barrier, mean value of three blisters",HD dermal lesions; Mafenide (50 mg),44.3 days
same,Blister formation,"HD dermal lesions; Mafenide (50 mg) in buffer, 3-time daily",3 h
bis-L-Glutamyl Vanadate,lowering of blood glucose level,diabetes mice db/db,52.5%
Rosglitazone,lowering of blood glucose level,diabetes mice db/db,22%
decavanadates [V10O28]^6−,IC50 (half-inhibitory concentration) range,[4],micro- and sub-micro-molar range
meta-vanadate (VO3)n^−,IC50 (half-inhibitory concentration) range,[4],micro- and sub-micro-molar range

# Like-named read-outs stand apart in the source and are kept apart here.
